# Laboratory results from PMC7196072, “Cryo-EM structures of PAC1 receptor reveal ligand binding mechanism” (Cell Research, 2020).
# Substitutions are numbered along the chain they refer to.
# Experiments:
# [1] = target: T1, WT PAC1R (Homo sapiens, UniProt P41586); type: cell-based; settings: PACAP38 compared with maxadilan
# T1 construct: expressed in transfected cells; host or cells: CHO-K1 cells infected with BacMam virus (pJIF1.1)
# T1 sequence (P41586 21-468): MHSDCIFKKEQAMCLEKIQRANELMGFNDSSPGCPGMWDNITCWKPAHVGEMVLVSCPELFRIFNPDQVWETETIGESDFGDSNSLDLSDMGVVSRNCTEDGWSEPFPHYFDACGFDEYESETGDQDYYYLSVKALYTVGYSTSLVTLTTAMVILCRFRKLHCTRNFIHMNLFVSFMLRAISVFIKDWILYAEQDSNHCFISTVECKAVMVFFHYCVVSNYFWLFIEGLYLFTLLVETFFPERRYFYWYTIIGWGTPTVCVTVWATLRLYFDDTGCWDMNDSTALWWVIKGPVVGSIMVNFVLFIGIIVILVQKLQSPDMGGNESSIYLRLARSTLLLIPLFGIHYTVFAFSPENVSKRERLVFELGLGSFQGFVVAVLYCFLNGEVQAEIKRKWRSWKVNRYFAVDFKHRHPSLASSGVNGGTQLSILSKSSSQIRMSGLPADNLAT
# [2] = target: T2, PAC1R Y130A (Homo sapiens, UniProt P41586, Y130A); test: Functional cAMP assay, PAC1R mutant; type: cell-based; settings: Y130A vs WT
# T2 construct: expressed in transfected cells; host or cells: CHO-K1 cells infected with BacMam virus (pJIF1.1)
# T2 sequence (P41586 21-468 Y130A): T1 sequence (P41586 21-468) with Y110A
# [3] = target: T3, PAC1R F131A (Homo sapiens, UniProt P41586, F131A); test: Functional cAMP assay, PAC1R mutant; type: cell-based; settings: F131A vs WT
# T3 construct: expressed in transfected cells; host or cells: CHO-K1 cells infected with BacMam virus (pJIF1.1)
# T3 sequence (P41586 21-468 F131A): T1 sequence (P41586 21-468) with F111A
# [4] = target: T4, PAC1R R199A (Homo sapiens, UniProt P41586, R199A); test: Functional cAMP assay, PAC1R mutant; type: cell-based; settings: R199A vs WT
# T4 construct: expressed in transfected cells; host or cells: CHO-K1 cells infected with BacMam virus (pJIF1.1)
# T4 sequence (P41586 21-468 R199A): T1 sequence (P41586 21-468) with R179A
# [5] = target: T1, WT PAC1R; settings: introductory statement, no reference given; cited from earlier work
structure (smiles),measurement,setting,value
"CC[C@H](C)[C@H](NC(=O)CNC(=O)[C@H](CC(=O)O)NC(=O)[C@H](CO)NC(=O)[C@@H](N)Cc1c[nH]cn1)C(=O)N[C@@H](Cc1ccccc1)C(=O)N[C@H](C(=O)N[C@@H](CC(=O)O)C(=O)N[C@@H](CO)C(=O)N[C@@H](Cc1ccc(O)cc1)C(=O)N[C@@H](CO)C(=O)N[C@@H](CCCNC(=N)N)C(=O)N[C@@H](Cc1ccc(O)cc1)C(=O)N[C@@H](CCCNC(=N)N)C(=O)N[C@@H](CCCCN)C(=O)N[C@@H](CCC(N)=O)C(=O)N[C@@H](CCSC)C(=O)N[C@@H](C)C(=O)N[C@H](C(=O)N[C@@H](CCCCN)C(=O)N[C@@H](CCCCN)C(=O)N[C@@H](Cc1ccc(O)cc1)C(=O)N[C@@H](CC(C)C)C(=O)N[C@@H](C)C(=O)N[C@@H](C)C(=O)N[C@H](C(=O)N[C@@H](CC(C)C)C(=O)NCC(=O)N[C@@H](CCCCN)C(=O)N[C@@H](CCCNC(=N)N)C(=O)N[C@@H](Cc1ccc(O)cc1)C(=O)N[C@@H](CCCCN)C(=O)N[C@@H](CCC(N)=O)C(=O)N[C@@H](CCCNC(=N)N)C(=O)N[C@H](C(=O)N[C@@H](CCCCN)C(=O)N[C@@H](CC(N)=O)C(=O)N[C@@H](CCCCN)C(N)=O)C(C)C)C(C)C)C(C)C)[C@@H](C)O [PACAP38, pituitary adenylate cyclase-activating polypeptide]",PAC1R activation potency,[1],activate the PAC1R in similar potencies
same,ligand-induced receptor activity,[2],but not PACAP38-induced receptor activity
same,ligand-induced receptor activity,[3],but not PACAP38-induced receptor activity
same,ligand-induced receptor activity,[4],specifically affected PACAP38-induced receptor activity
same,PAC1R activation,[5],potently activate PAC1R
